The numbers were not newly measured in PMC9930120 (Journal of Chemical Information and Modeling, 2023), which cites them from elsewhere.

Chains of the proteins cited; added tags and fusions are not shown.
UniProt P34972, whole entry: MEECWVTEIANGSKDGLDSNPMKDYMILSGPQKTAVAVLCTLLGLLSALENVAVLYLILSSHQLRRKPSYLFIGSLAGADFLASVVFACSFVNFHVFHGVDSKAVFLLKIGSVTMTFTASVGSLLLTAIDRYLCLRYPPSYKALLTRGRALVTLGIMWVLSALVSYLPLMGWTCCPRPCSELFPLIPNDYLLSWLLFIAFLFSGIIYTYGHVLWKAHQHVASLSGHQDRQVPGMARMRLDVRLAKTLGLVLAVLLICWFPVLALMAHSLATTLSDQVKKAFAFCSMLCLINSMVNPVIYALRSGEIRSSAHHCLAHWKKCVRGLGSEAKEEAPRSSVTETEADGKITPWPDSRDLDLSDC

The target in this data set is human CB2 (Homo sapiens, UniProt P34972). To be noted: cited from earlier work.

For `Cc1c(C(=O)NN2CCOCC2)nn(-c2ccc(Cl)cc2Cl)c1-c1ccc(I)cc1` [AM-281], the Ki was 4.87 µM.

By Ki is commonly meant the equilibrium dissociation constant of an inhibitor or competing ligand from its target.
